Assay results as given in publication PMC11585924, “Direct measurements of neurosteroid binding to specific sites on GABAA receptors” (British journal of pharmacology, 2024).

Amino acid sequences for entries named in this document (tags omitted). Chains listed by the source or under a name are the forms on record and can include a tag or linker.
UniProt P14867, other isoform, or with tags, fused parts or gaps: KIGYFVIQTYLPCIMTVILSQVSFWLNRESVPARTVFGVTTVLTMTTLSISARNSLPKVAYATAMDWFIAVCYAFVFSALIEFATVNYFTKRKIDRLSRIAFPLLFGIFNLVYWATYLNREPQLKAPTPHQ
UniProt P14867, other isoform, or with tags, fused parts or gaps W273L: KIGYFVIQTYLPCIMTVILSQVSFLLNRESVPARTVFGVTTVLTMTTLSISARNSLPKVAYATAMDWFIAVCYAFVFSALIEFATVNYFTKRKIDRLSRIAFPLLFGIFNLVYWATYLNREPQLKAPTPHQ
UniProt P14867, other isoform, or with tags, fused parts or gaps Q269L: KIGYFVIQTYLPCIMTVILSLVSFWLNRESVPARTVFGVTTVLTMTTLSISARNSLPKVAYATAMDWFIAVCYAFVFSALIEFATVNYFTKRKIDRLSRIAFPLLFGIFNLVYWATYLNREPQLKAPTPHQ

Assays:
Type in all cases: binding
[1] = molecular target: ELIC-α1GABAAR (Homo sapiens, UniProt P14867)
Experimental: One hundred microlitres of ELIC-α1GABAAR (0.3 μM) was transferred into a 50-μl window quartz cuvette maintained at 4°C, and NaI was added to the protein sample to a final concentration of 100 mM and incubated for 10 min. MQ290 was then added at a concentration of 3 μM for 3α-OH NS inhibition curves or 1 μM for 3β-OH NS inhibition curves and incubated for 30 min. One-microlitre aliquots of 3α-OH and 3β-OH NS from their corresponding stock solutions (prepared in Buffer A + 0.015% DDM) were added to achieve concentrations between 0.01 and 30 μM. The background emission spectra of ligands alone were obtained for each ligand concentration in the absence of protein and were subtracted from the protein-ligand emission spectra to yield background subtracted data. The MQ290 FRET spectra for different ligand concentrations were estimated using the method described above. The 370-nm intensities of the FRET spectra were plotted against ligand concentration and fitted to a four-parameter logistic curve to obtain IC50 data (GraphPad Software version 9.4.0, San Diego, CA). Ki values were calculated using the relationship: Ki=IC50/1+LT/Kd
where LT is the concentration of MQ290 and Kd was determined from the MQ290 binding curve.

[2] = molecular target: ELIC-α1^W246LGABAAR (Homo sapiens, UniProt P14867, W273L)
Experimental: (§1) ELIC-α1GABAAR was expressed and purified according to a previously published protocol ([Q. Chen et al., 2018]). The purified protein was aliquoted and stored at −80°C. Mutagenesis was performed as described in previous reports ([Kinde et al., 2016]) by oligonucleotide-directed mutagenesis using Phu polymerase (Thermo Fisher Scientific, Waltham, MA, USA) verified by sequencing. ELIC-α1GABAAR was expressed in OverExpress™ C43(D3) E. coli, derived from Rosetta™(DE3) cells under double selection with kanamycin and chloramphenicol for ELIC-α1GABAAR.
(§2) One hundred microlitres of purified ELIC-α1GABAAR (0.3 μM in Buffer A + 0.015% DDM) was transferred into a 50-μl window quartz cuvette (Starna Cells, Atascadero, CA, USA), which was placed in a cuvette holder maintained at 4°C. The cuvette containing the protein sample remained in the cuvette holder for the duration of the experiment. Protein stability was ensured by comparing the intensities of emission spectra of ELIC-α1GABAAR at 330 nm before and after 30 min incubation, and the protein sample was discarded if the intensity decreased by more than 1%. Two microlitres of NaI (AK Scientific, Union City, CA, USA; 5-M stock prepared in 0.1-Mm sodium hydrosulfite [Sigma-Aldrich, St. Louis, MO, USA]) was added to the protein (final concentration = 100 mM) and incubated for 10 min to reduce the fluorescence emission from hydrophilic tryptophans. To measure the concentration–dependent effects of NS on tryptophan fluorescence, 1 μl of NS from each 100× stock solution was sequentially added to the NaI-equilibrated protein and thoroughly mixed to achieve concentrations from 0.01 to 50 μM. The protein-NS solution was incubated for 30 min after each addition. Following each incubation period, the emission spectrum of the protein-NS solution was acquired.

[3] = molecular target: ELIC-α1^Q242LGABAAR (Homo sapiens, UniProt P14867, Q269L); conditions: Q242L; in the presence of 30 μM Epi-AlloP
Experimental: as §1, §2

CC(=O)[C@H]1CC[C@H]2[C@@H]3CC[C@H]4C[C@H](O)CC[C@]4(C)[C@H]3CC[C@]12C [AlloP, allopregnanolone]
fold Ki (FRET assay) lower than Kd (quench assay) [1]: about 5 fold | residual saturable quenching in W246L receptors ([2]; W246L): 29 ± 1% | reduction of AlloP quenching in W246L receptors ([2]; W246L vs WT): 66 ± 6% | extent of quench [3]: −17%
